Molecular target: Androgen Receptor (AR) (Homo sapiens, UniProt P10275, H875Y, form not given)
Experiment: Western Blot analysis of AR protein expression in CWR22Rv1 cells
Format: cell-based
Details: read-out: Reduction of AR expression IC50 (µM) 24 h, Western blotting, 24 h post-incubation

Chains of the proteins cited; added tags and fusions are not shown.
UniProt P10275, whole entry H875Y: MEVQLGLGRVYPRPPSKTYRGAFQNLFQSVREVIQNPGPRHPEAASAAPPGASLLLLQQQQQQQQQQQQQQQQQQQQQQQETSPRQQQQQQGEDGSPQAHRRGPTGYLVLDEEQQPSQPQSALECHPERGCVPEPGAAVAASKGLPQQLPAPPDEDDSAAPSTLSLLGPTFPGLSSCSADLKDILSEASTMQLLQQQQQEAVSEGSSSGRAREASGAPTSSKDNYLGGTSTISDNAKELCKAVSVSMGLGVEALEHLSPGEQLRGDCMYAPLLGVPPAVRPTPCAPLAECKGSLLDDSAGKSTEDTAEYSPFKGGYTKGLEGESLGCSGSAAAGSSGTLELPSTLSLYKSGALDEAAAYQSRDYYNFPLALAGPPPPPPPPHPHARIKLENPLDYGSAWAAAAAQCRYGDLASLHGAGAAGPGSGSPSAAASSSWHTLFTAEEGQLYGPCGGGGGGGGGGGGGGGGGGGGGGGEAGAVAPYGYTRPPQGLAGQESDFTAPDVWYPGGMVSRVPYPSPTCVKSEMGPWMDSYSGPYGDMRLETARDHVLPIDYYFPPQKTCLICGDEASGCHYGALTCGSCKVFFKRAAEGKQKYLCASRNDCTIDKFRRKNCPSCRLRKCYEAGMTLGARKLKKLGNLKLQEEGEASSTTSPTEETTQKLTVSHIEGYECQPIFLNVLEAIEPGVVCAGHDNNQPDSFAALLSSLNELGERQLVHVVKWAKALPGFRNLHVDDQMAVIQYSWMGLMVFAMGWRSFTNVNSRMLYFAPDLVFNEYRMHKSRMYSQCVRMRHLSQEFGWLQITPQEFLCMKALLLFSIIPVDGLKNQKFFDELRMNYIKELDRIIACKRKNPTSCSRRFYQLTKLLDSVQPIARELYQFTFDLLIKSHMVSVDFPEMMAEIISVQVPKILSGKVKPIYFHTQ

For `COc1ccc(/C=C/C(=O)C(C)(CCC(=O)O)C(=O)/C=C/c2ccc(OC)c(OC)c2)cc1OC`, the IC50 was over 5 µM.

Source: patent publication EP3150203B1, “COMPOUNDS WITH (1E,6E)-1,7-BIS-(3,4- DIMETHOXYPHENYL)-4,4-DISSTITUTED-HEPA-1,6-DIENE-3,5-DI-ONE STRUCTURAL SCAFFOLD,THEIR BIOLOGICAL ACTIVITY, AND USES THEREOF” (Allianz Pharmascience Ltd, priority 2012, dated 2013)
